Structures are written as SMILES. The list shows a part of the results, in another mix than the full data. The source made the active and inactive calls.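 The calls were made as follows: active = Z-score of -3 or lower, scaled per plate to the spread of control and sample wells; inactive = z-score above -3.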

Sequences of proteins named here, by UniProt entry; tags and fusion partners are left off.
UniProt Q14289, whole entry, looked up: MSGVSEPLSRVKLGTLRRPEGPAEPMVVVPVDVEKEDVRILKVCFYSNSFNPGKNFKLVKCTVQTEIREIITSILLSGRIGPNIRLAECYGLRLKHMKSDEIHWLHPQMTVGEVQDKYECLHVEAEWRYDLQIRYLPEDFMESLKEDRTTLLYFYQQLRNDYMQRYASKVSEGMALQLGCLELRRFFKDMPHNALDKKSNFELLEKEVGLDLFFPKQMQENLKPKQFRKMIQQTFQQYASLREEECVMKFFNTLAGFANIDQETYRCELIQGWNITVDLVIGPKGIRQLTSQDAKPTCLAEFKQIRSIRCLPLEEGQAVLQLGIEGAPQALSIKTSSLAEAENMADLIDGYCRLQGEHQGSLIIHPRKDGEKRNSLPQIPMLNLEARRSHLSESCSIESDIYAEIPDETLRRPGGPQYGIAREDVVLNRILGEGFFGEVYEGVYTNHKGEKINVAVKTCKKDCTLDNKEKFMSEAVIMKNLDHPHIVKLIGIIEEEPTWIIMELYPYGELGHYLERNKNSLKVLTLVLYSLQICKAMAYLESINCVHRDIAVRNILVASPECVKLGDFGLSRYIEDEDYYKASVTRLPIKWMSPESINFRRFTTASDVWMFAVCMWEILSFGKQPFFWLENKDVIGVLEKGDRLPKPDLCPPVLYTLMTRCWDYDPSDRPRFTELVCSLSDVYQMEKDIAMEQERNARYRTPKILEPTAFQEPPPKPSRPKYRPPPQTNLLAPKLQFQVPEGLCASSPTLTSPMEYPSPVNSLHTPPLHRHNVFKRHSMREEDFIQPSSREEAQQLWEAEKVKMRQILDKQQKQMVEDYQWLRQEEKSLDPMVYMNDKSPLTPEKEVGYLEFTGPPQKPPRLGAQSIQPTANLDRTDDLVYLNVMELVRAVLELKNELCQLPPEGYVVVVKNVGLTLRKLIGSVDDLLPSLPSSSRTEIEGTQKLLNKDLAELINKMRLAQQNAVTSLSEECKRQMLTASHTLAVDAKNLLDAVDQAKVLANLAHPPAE

This test addresses Protein-tyrosine kinase 2-beta (Homo sapiens) (UniProt Q14289). Put plainly: antagonists of Pyk2 self-association, primary screen, Q293 cells, FERM NanoBiT luminescence, HTS (AID 1347419).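 Also: the deposit names both 25 µM and 10 µM; negative z-score means lost luminescence so less FERM oligomerization.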 The conditions noted are these: stronger effect = lower value. The arrangement: dose or concentration left out as unconfirmed.
For `c1nnnn1CCn1cnnn1`, the z-score is inactive: 1.
As for `O=P(Nc1nccs1)(c1ccccc1)c1ccccc1`, the figure is inactive: 1.5; as for `O=C(OC1CN2CCC1CC2)c1cccc(Cl)c1` (stereo not drawn), inactive: 0.66.
Take `COC(=O)c1cc2c(s1)N=C(c1ccccc1)N(C)P2(=O)N1CCOCC1` (stereo not drawn): the z-score was inactive: 0.34.
As for `CCC(=O)N1C2C3N(C(=O)CC)C1C1N(C(=O)CC)C(C(N1C(=O)CC)N3C(=O)CC)N2C(=O)CC`, the z-score is inactive: 0.6.
As for `O=P1(Nc2nc3ccc(Cl)cc3s2)COc2ccccc2O1` (stereo not drawn), the figure is inactive: 0.42; as for `CN1CCCC(OC(=O)C(c2ccccc2)c2ccccc2)C1` (stereo not drawn), inactive: -0.58; as for `CC(C)CC(=O)NC(Sc1ccc(Cl)cc1)C(Cl)(Cl)Cl` (stereo not drawn), inactive: -0.37.
As for `Oc1ccccc1CNc1ccccn1`, the figure is inactive: 0.36.
As for `CCOP(=O)(Nc1ccccc1)OCC`, the figure is inactive: 0.36.
For the molecule `O=[N+]([O-])c1cccc2n[nH]nc12`, the z-score is inactive: 1.17.
As for `CC(=O)N1C2C3N(C(C)=O)C1C1N(C(C)=O)C(C(N1C(C)=O)N3C(C)=O)N2C(C)=O`, the figure is inactive: 1.05; as for `CCc1nc2c(n1)c1c(non1O)c1c2no[n+]1[O-]`, inactive: -0.65; as for `CN(C)C(=O)OCCc1n(C)cc[n+]1C`, inactive: -0.02.
The result for `CC1CCN(C(=O)Oc2c(Cl)cc(Cl)c3cccnc23)CC1` reads inactive: 0.12; that for `O=C(COc1ccccc1)OC1CN2CCC1CC2` (stereo not drawn), inactive: -0.28.
The result for `COP1(=S)c2c(C)nn(CCC#N)c2N=C(c2ccc(F)cc2)N1C` (stereo not drawn) reads inactive: 0.39; that for `CCC(C)N(CC(C)C)C(=S)SC(NC(C)=O)C(Cl)(Cl)Cl` (stereo not drawn), inactive: -0.8; that for `CCN(CC)C(=S)SC(NC=O)C(Cl)(Cl)Cl` (stereo not drawn), inactive: -0.63.
On to `ClCCSc1nnc(-c2cccnc2)o1`, for which the z-score is inactive: 2.35.
As for `O=C(OC1CN2CCC1CC2)C12CC3CC(CC(C3)C1)C2` (stereo not drawn), the figure is inactive: 1.26; as for `Cc1cccc(OCC(=O)OC2CN3CCC2CC3)c1` (stereo not drawn), inactive: 0.44; as for `O=P(Nc1nccs1)(c1ccccc1)c1nc2ccccc2s1` (stereo not drawn), inactive: 0.46.
On to `CCOP1(=S)c2c(C)nn(CCC#N)c2N=C(c2ccccc2F)N1C` (stereo not drawn), for which the z-score was inactive: -0.45.
The result for `O=[N+]([O-])c1ccc2c(c1)nnn2O` reads inactive: 0.38.
With `CCOP1(=S)c2c(C)nn(CCC#N)c2N=C(c2ccc(F)cc2)N1C` (stereo not drawn), the z-score is inactive: 0.49.
As to `Cc1nn(-c2ccccc2)c2c1P(=O)(N1CCOCC1)N(C)C(c1ccccc1)=N2` (stereo not drawn), the z-score is inactive: 0.74.
Consider `O=P1(Nc2ccc(Br)cn2)COc2ccccc2OC1`, for which the z-score was inactive: 0.14.
The result for `Cc1ccc(OCC(=O)OC2CN3CCC2CC3)cc1` (stereo not drawn) reads inactive: 0.45; that for `O=P1(Nc2ncccn2)COc2ccccc2OC1`, inactive: 0.87.
The result for `Clc1n[nH]nc1-c1nn[nH][15n]1` reads inactive: 0.57; that for `O=P1(Nc2ccccn2)COc2ccccc2OC1`, inactive: 1.06; that for `CC1(CBr)Cn2c(nc3ccccc3c2=O)S1` (stereo not drawn), inactive: 0.63.

Source of the values: PubChem BioAssay AID1347419 (Sanford-Burnham Center for Chemical Genomics, 2020).
